## AlphaSeq binding of Ab-95 light chain variants to a spike HR2 peptide

Data: MIT Lincoln Laboratory AlphaSeq set, Engelhart et al. 2022, doi:10.1038/s41597-022-01779-4, as distributed in FLAb.

Binding partner: SARS-CoV-2 spike HR2 peptide, sequence PDVDLGDISGINAS.

Parent scFv Ab-95: VH joined to VL by a (GGGGS)3 linker. Changes lie in the light chain CDRs alone.
VH: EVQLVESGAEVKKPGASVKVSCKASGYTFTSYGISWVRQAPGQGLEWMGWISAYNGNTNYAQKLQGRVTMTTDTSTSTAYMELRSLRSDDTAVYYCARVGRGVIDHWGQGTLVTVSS
VL: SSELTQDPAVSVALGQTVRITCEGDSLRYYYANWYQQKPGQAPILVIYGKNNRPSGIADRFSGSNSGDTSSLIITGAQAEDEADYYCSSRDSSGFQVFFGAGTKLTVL

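Phage display of a naive human antibody library on the peptide gave the parent. In library AAYL52, one, two or three CDR residues were substituted; doubles and triples were drawn at random. Affinity was read by AlphaSeq, a pooled yeast mating assay with surface-displayed partners. Binding brings cells together so that they mate, and sequencing counts the barcode pairs among the diploids. Each replicate has its own calibration line, from reference interactions of the BCL2 family. There are three technical replicates.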

Changes read parent residue, position, new residue, counted from the first residue of the VL shown.
Scale: log10 of Kd in nM, estimated from mating counts; low values are strong binders.
Averages over replicates are reported, and they cover detected replicates only.
Where no diploid with the target was found in that replicate, the entry reads "nd": below detection, most likely a poor binder, though not proof of it.
Empty control strains, which show no peptide, gave a signal in 28% of pairings with library AAYL52; the median was 3.91 and 95% of these signals were weaker than 2.90. No background was subtracted. Also given: how often the same scFv was detected with the empty control strains.

The variant S26Q/N51I/S55E gave 2.84, nd, 4.35 (mean 3.59; controls 2 of 9).
The variant Y30N/R90W/V97L gave 1.09, 1.07, 0.63 (mean 0.93; controls 1 of 9).
The variant R28V/N33S/R90P gave nd, 5.12, nd (controls 5 of 9).
The variant K50C/P54H/F98I gave nd, 4.16, nd (controls 2 of 9).
The variant A32T/N33A/K50N gave nd, 4.15, 3.35 (mean 3.75; controls 3 of 9).
The variant L27G/P54F/S89L gave 3.59, 5.19, nd (mean 4.39; controls 0 of 9).
The variant E23F/K50L/D91M gave 3.03, 4.42, nd (mean 3.72; controls 2 of 9).
The variant Y30M/S55W/V97P gave 3.03, 4.29, 3.68 (mean 3.67; controls 0 of 9).
The variant S26W/A32P/S92C gave 3.58, 3.25, 3.50 (mean 3.44; controls 4 of 9).
The variant R28L/S88E/S89Q gave 4.21, nd, nd (controls 1 of 9).
The variant L27H/N33Q/K50N gave 3.67, nd, nd (controls 4 of 9).
The variant Y30V/S55G/F98K gave 2.58, 2.47, 2.16 (mean 2.40; controls 6 of 9).
The variant E23F/R53T/S88D gave 4.00, 4.84, 3.37 (mean 4.07; controls 5 of 9).
The variant G49Q/S93R gave nd, nd, 3.25 (controls 1 of 9).
The variant N51S/F95T gave 2.45, 2.63, 2.79 (mean 2.63; controls 1 of 9).
The variant Y29A/N33V/S89R gave nd, nd, 4.66 (controls 3 of 9).
The variant S26T/Y29K/D91H gave 3.22, 2.96, 2.09 (mean 2.76; controls 2 of 9).
The variant E23P/G24V/A32R gave nd, nd, nd (controls 1 of 9).
The variant K50F/R90P/D91N gave 3.54, nd, 3.67 (mean 3.60; controls 2 of 9).
The variant A32S/K50Q/R53G gave nd, nd, nd (controls 0 of 9).
The variant S26C/F98Q gave nd, nd, nd (controls 0 of 9).
The variant E23T/S55A/S88T gave 3.43, 3.40, nd (mean 3.42; controls 2 of 9).
The variant Y30R/N51K/N52M gave 2.18, 2.47, 2.46 (mean 2.37; controls 4 of 9).
The variant S26L/K50T/S93C gave nd, 3.36, 2.71 (mean 3.04; controls 1 of 9).
The variant Y31N/R53Q/V97A gave 2.39, 2.13, 1.93 (mean 2.15; controls 4 of 9).
The variant G24C/R90A/G94S gave 3.23, 3.20, 3.13 (mean 3.19; controls 4 of 9).
The variant A32C/S88K/G94M gave 2.91, 3.23, 3.13 (mean 3.09; controls 1 of 9).
The variant Y31C/G49M/G94S gave nd, nd, nd (controls 2 of 9).
The variant S26F/R53P/F95H gave nd, nd, 3.71 (controls 1 of 9).
The variant G24R/Y31N/S55V gave 2.27, 2.21, 1.81 (mean 2.10; controls 2 of 9).
The variant Y29K/Y30F/G49H gave nd, 3.56, 4.22 (mean 3.89; controls 1 of 9).
The variant E23L/N33V/S55A gave 2.90, 2.19, 2.03 (mean 2.37; controls 4 of 9).
The variant D25V/N51C/G94R gave nd, nd, 3.00 (controls 2 of 9).
The variant S92N/G94S/V97E gave nd, nd, nd (controls 1 of 9).
The variant N33G/K50G/S93C gave nd, nd, nd (controls 1 of 9).
The variant N33D/G49K/N52R gave 3.75, nd, 3.58 (mean 3.67; controls 4 of 9).
The variant L27I/Y30M/D91Y gave 3.71, nd, nd (controls 2 of 9).
The variant R28H/F95W/V97N gave 3.60, 5.07, nd (mean 4.34; controls 3 of 9).
The variant K50W/S92C/Q96G gave 3.78, 5.58, 3.76 (mean 4.38; controls 5 of 9).
The variant G24E/S93P/F95W gave 3.62, 4.76, nd (mean 4.19; controls 7 of 9).

Extract of 4 entries:

changes,"log10 Kd, replicates","mean, log10 nM",empty controls
G24E/S93P/F95W,"3.62, 4.76, nd",4.19,7 of 9
Y30R/N51K/N52M,"2.18, 2.47, 2.46",2.37,4 of 9
K50C/P54H/F98I,"nd, 4.16, nd",4.16,2 of 9
Y30V/S55G/F98K,"2.58, 2.47, 2.16",2.40,6 of 9